Values of other authors, collected in patent US20220331433A1, “NUCLEIC ACID-MEDIATED DELIVERY OF THERAPEUTICS” (The Regents of the University of California, priority 2019, published 2022).

Settings: reported; cited from earlier work

N-(2-hydroxypropyl) methyl acrylamide polymer-doxorubicin [HPMA-DOX]
Circulation time: 20.1 h
